Data from ChEMBL document CHEMBL3352462, “Aldosterone synthase inhibitors as promising treatments for mineralocorticoid dependent cardiovascular and renal diseases” (J Med Chem, 2014).

Legend:
[1] = target: T1, Cytochrome P450 11B1, mitochondrial (Homo sapiens, UniProt P15538); test: Inhibition of human CYP11B1 expressed in V79 MZ cells pretreated with compound for 1 hr followed by addition of 500 nM 11-deoxycorticosterone for 3 hrs by HPLC analysis; type: cell-based, V79MZ
T1 sequence (P15538 whole entry): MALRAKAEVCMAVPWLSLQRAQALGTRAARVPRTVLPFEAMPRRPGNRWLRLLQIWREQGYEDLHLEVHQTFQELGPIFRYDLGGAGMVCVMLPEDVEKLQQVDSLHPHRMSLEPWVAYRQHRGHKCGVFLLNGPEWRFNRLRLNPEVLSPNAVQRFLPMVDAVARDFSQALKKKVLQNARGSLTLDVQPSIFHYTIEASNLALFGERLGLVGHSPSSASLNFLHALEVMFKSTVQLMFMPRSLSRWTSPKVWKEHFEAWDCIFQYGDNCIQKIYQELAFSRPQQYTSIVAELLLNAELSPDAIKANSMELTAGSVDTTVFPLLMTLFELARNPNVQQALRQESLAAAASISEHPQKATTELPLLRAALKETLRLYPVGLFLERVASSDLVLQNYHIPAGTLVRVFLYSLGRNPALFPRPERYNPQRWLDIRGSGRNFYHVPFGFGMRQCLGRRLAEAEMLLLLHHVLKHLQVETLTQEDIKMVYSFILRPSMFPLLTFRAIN

[2] = target: T2, Cytochrome P450 11B2, mitochondrial (Homo sapiens, UniProt P19099); test: Inhibition of human aldosterone synthase expressed in V79 MZ cells pretreated with compound for 1 hr followed by addition of 500 nM 11-deoxycorticosterone for 1hr by HPLC analysis; type: cell-based, V79MZ
T2 sequence (P19099 whole entry): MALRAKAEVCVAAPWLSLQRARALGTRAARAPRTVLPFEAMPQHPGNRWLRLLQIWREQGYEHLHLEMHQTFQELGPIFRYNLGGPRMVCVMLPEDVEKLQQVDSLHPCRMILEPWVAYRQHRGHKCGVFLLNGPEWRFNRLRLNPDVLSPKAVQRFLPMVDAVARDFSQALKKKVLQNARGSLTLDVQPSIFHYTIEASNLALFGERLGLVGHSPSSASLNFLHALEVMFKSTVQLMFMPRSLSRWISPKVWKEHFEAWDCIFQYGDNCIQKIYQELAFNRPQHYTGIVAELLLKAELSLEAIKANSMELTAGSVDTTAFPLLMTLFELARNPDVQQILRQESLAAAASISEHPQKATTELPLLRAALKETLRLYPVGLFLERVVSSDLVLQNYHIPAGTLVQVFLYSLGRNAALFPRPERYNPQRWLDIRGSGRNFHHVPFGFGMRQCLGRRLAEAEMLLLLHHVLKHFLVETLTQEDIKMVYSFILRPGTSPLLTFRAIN

- IC50 [1]: 0.046 µM
- IC50 [2]: 0.208 µM
Compound: CC(C)(C(=O)c1cccnc1)c1cccnc1 [METYRAPONE]
